According to ChEMBL document CHEMBL4842333, “Catechol-Bearing Polyketide Derivatives from Sparticola junci” (2021):

Test system: Pseudomonas aeruginosa
Settings: DSMPA14

GENTAMICIN
MIC: 0.5 µg/mL
